Molecular target: Replicase polyprotein 1ab (Severe acute respiratory syndrome coronavirus 2, UniProt P0DTD1)

Going from `CC(C)Cn1c(C(C)c2ccccc2)nc2cc(O)c(O)c(O)c2c1=O` (stereo unspecified) to `CC(C)Cn1c(-c2ccccc2)nc2cc(O)c(O)c(O)c2c1=O`, the IC50 falls from 692 nM to 124 nM (5.6-fold).

Compared with `CC(C)Cc1nc2cc(O)c(O)c(O)c2c(=O)[nH]1`, `CC(C)c1nc2cc(O)c(O)c(O)c2c(=O)[nH]1` is 13-fold higher in IC50: 385 nM for the first, 4940 nM for the second.

Going from `O=c1c2c(O)c(O)c(O)cc2nc(-c2ccccc2)n1-c1cccc(F)c1` to `Cc1cc(-n2c(-c3ccccc3)nc3cc(O)c(O)c(O)c3c2=O)ccc1F`, the IC50 falls from 236 nM to 117 nM (2-fold).

Compared with `O=c1[nH]c(C2CCCCC2)nc2cc(O)c(O)c(O)c12`, `O=c1[nH]c(C2CCCC2)nc2cc(O)c(O)c(O)c12` is 2.5-fold lower in IC50: 1370 nM for the first, 539 nM for the second. The second is the more potent here.

Going from `O=c1[nH]c(-c2ccc3ccccc3c2)nc2cc(O)c(O)c(O)c12` to `O=c1[nH]c(-c2ccccc2)nc2cc(O)c(O)c(O)c12`, the IC50 falls from 3570 nM to 1370 nM (2.6-fold). The second is the more potent here.

Going from `O=c1c2c(O)c(O)c(O)cc2nc(-c2ccccc2)n1C1CCCC1` to `O=c1c2c(O)c(O)c(O)cc2nc(-c2ccccc2)n1C1CCCCC1`, the IC50 rises from 124 nM to 274 nM (2.2-fold). The first is the more potent here.

Compared with `CC(C)Cc1nc2cc(O)c(O)c(O)c2c(=O)n1-c1ccccc1`, `CC(C)Cc1nc2cc(O)c(O)c(O)c2c(=O)n1-c1ccccc1F` is 2.2-fold higher in IC50: 107 nM for the first, 239 nM for the second. The first is the more potent here.

Going from `O=c1[nH]c(C2CC2)nc2cc(O)c(O)c(O)c12` to `O=c1[nH]c(-c2ccncc2)nc2cc(O)c(O)c(O)c12`, the IC50 rises from 5490 nM to 15200 nM (2.8-fold). The first is the more potent here.

`O=c1[nH]c(-c2cccc(F)c2F)nc2cc(O)c(O)c(O)c12` and `O=c1[nH]c(-c2ccccc2F)nc2cc(O)c(O)c(O)c12` are within 1.5-fold of each other in IC50: 1130 nM for the first, 1440 nM for the second.

`CC(C)Cn1c(Cc2ccccc2)nc2cc(O)c(O)c(O)c2c1=O` and `O=c1[nH]c(Cc2ccccc2)nc2cc(O)c(O)c(O)c12` are within 1.5-fold of each other in IC50: 466 nM for the first, 327 nM for the second.

First: O=c1c2c(O)c(O)c(O)cc2nc(-c2ccccc2)n1-c1ccc(O)cc1
Second: O=c1c2c(O)c(O)c(O)cc2nc(-c2ccccc2)n1-c1ccccc1
The IC50 of the first is 3.3-fold higher: 271 nM for the first, 83 nM for the second.

First: O=c1c2c(O)c(O)c(O)cc2nc(-c2ccccc2)n1-c1cccnc1
Second: O=c1c2c(O)c(O)c(O)cc2nc(-c2ccccc2)n1-c1cn[nH]c1
The IC50 of the first is 1.8-fold lower: 212 nM for the first, 390 nM for the second.

`O=c1[nH]c(-c2ccccc2Cl)nc2cc(O)c(O)c(O)c12` and `O=c1[nH]c(-c2ccccc2Br)nc2cc(O)c(O)c(O)c12` are within 1.5-fold of each other in IC50: 435 nM for the first, 554 nM for the second.

Going from `O=c1[nH]c(-c2cccc([N+](=O)[O-])c2)nc2cc(O)c(O)c(O)c12` to `O=c1[nH]c(-c2cccc(F)c2)nc2cc(O)c(O)c(O)c12`, the IC50 falls from 11200 nM to 5130 nM (2.2-fold).

Compared with `O=c1[nH]c(-c2ccc(Br)cc2)nc2cc(O)c(O)c(O)c12`, `Cc1ccc(-c2nc3cc(O)c(O)c(O)c3c(=O)[nH]2)cc1` is 5.2-fold lower in IC50: 9800 nM for the first, 1870 nM for the second.

Compared with `O=c1c2c(O)c(O)c(O)cc2nc(-c2ccccc2)n1C1CC1`, `O=c1c2c(O)c(O)c(O)cc2nc(-c2ccccc2)n1CCO` is 4.7-fold higher in IC50: 290 nM for the first, 1360 nM for the second. The first is the more potent here.

`O=c1[nH]c(-c2ccccc2OC(F)(F)F)nc2cc(O)c(O)c(O)c12` and `O=c1[nH]c(-c2ccccc2C(F)(F)F)nc2cc(O)c(O)c(O)c12` are within 1.5-fold of each other in IC50: 1800 nM for the first, 1480 nM for the second.

Going from `CC(c1ccccc1)c1nc2cc(O)c(O)c(O)c2c(=O)[nH]1` (stereo unspecified) to `CC(C)C(c1ccccc1)c1nc2cc(O)c(O)c(O)c2c(=O)[nH]1` (stereo unspecified), the IC50 rises from 174 nM to 390 nM (2.2-fold). The first is the more potent here.

`CC(c1ccccc1)c1nc2cc(O)c(O)c(O)c2c(=O)n1-c1ccc(Br)cc1F` (stereo unspecified) and `CC(c1ccccc1)c1nc2cc(O)c(O)c(O)c2c(=O)n1-c1ccccc1F` (stereo unspecified) are within 1.5-fold of each other in IC50: 386 nM for the first, 290 nM for the second.

Compared with `O=c1[nH]c(-c2cccc(C(F)(F)F)c2)nc2cc(O)c(O)c(O)c12`, `Cc1cccc(-c2nc3cc(O)c(O)c(O)c3c(=O)[nH]2)c1` is 4.6-fold lower in IC50: 10500 nM for the first, 2280 nM for the second.

First: O=c1[nH]c(-c2ccccc2[N+](=O)[O-])nc2cc(O)c(O)c(O)c12
Second: Cc1ccccc1-c1nc2cc(O)c(O)c(O)c2c(=O)[nH]1
The IC50 of the first is 29-fold higher: 10600 nM for the first, 365 nM for the second. The second is the more potent here.

`O=c1c2c(O)c(O)c(O)cc2nc(-c2ccccc2)n1-c1ccc(Br)cc1F` and `O=c1c2c(O)c(O)c(O)cc2nc(-c2ccccc2)n1-c1ccccc1F` are within 1.5-fold of each other in IC50: 207 nM for the first, 205 nM for the second.

Going from `Cc1cc(-n2c(Cc3ccccc3)nc3cc(O)c(O)c(O)c3c2=O)ccc1F` to `O=c1c2c(O)c(O)c(O)cc2nc(Cc2ccccc2)n1-c1ccccc1`, the IC50 falls from 502 nM to 131 nM (3.8-fold).

Going from `Cc1cc(-n2c(CC(C)C)nc3cc(O)c(O)c(O)c3c2=O)ccc1F` to `CC(C)Cc1nc2cc(O)c(O)c(O)c2c(=O)n1-c1ccc(Br)cc1F`, the IC50 rises from 100 nM to 284 nM (2.8-fold). The first is the more potent here.

First: O=c1[nH]c(-c2ccc(Cl)cc2)nc2cc(O)c(O)c(O)c12
Second: O=c1[nH]c(-c2ccc(F)cc2)nc2cc(O)c(O)c(O)c12
The IC50 of the first is 1.7-fold lower: 7710 nM for the first, 12800 nM for the second.

First: O=c1[nH]c(-c2ccc(F)cc2F)nc2cc(O)c(O)c(O)c12
Second: O=c1[nH]c(-c2ccc(F)c(F)c2)nc2cc(O)c(O)c(O)c12
The IC50 of the first is 1.8-fold lower: 1540 nM for the first, 2720 nM for the second. The first is the more potent here.

First: CC(C)(C)NC(=O)Cn1c(-c2ccccc2)nc2cc(O)c(O)c(O)c2c1=O
Second: CC(C)(C)c1cccc(-c2nc3cc(O)c(O)c(O)c3c(=O)[nH]2)c1
The IC50 of the first is 8.9-fold lower: 949 nM for the first, 8420 nM for the second.

First: CC(c1ccccc1)c1nc2cc(O)c(O)c(O)c2c(=O)n1-c1ccccc1 (stereo unspecified)
Second: O=c1c2c(O)c(O)c(O)cc2nc(-c2ccccc2)n1-c1ccc(-c2ccccc2)cc1
The IC50 of the first is 3.1-fold lower: 477 nM for the first, 1480 nM for the second.

Compared with `CCC(c1ccccc1)c1nc2cc(O)c(O)c(O)c2c(=O)[nH]1` (stereo unspecified), `O=c1[nH]c(/C=C/c2ccccc2)nc2cc(O)c(O)c(O)c12` is 14-fold higher in IC50: 210 nM for the first, 2870 nM for the second.

`CC(C)c1cccc(-c2nc3cc(O)c(O)c(O)c3c(=O)[nH]2)c1` and `O=c1[nH]c(-c2cccc(Cl)c2)nc2cc(O)c(O)c(O)c12` are within 1.5-fold of each other in IC50: 7640 nM for the first, 6960 nM for the second.

Work on `O=c1[nH]c(-c2ccccc2O)nc2cc(O)c(O)c(O)c12` yielded an IC50 of 18300 nM.

Reference: ChEMBL document CHEMBL5335781, “Discovery of quinazolin-4-one-based non-covalent inhibitors targeting the severe acute respiratory syndrome coronavirus 2 main protease (SARS-CoV-2 Mpro)” (Eur J Med Chem, 2023)
